Earlier results on 1 compound are cited in patent US20240189293A1, “Compositions And Methods For Treating Gulf War Illness” (published 2024).

For this data set the following is noted: oral.

Structures are written as SMILES.

In the case of `CN(C)C(=O)Oc1ccc[n+](C)c1`, the bioavailability result was “poor bioavailability”.
